Screens as filed in PubChem.
The list is not random: actives were taken first. Their share in the collection is about 1.3%.
ERAP1 HTS inh: human ERAP1 aminopeptidase inhibitors, primary screen, biochemical, single point, plate reader; recombinant ERAP1, Leu-AMC fluorescence, 60 min; 0.15% of 340,000 active; AID 652197, 2013; inhibition, % at 10.7 µM; Endoplasmic reticulum aminopeptidase 1 (Homo sapiens), Q9NZ08;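 active means mean replicate inhibition of at least 30%, or all replicates individually reaching that 30% level; inactive means mean below 30% and not every replicate reaching it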;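 further: 0% = neutral control wells and 100% = L-leucinethiol positive control wells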
UUG fidelity: yeast start codon fidelity modulation; AID 602363; activity score, % at 18.7 µM; S. cerevisiae UUG-firefly luciferase reporter, luminescence/redox ratio; 0.13% of 350,000 active;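 active means replicate mean at a twofold rise or more, about +100% in these data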;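 further: firefly luciferase made from a UUG start codon reports start codon fidelity; reporter light over untreated wells divided by growth signal over untreated wells; some hits fall short of that in this replicate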
ARNT-TACC3 inh: disruptors of ARNT/TACC3 protein interaction, primary screen, biochemical, AlphaScreen, single concentration | inhibition, % at 9.99 µM | 0.66% of 390,000 active | AlphaScreen His-ARNT PAS-B/GST-TACC3 binding, luminescence; TACC3 fragment carries E629A point mutation | Transforming acidic coiled-coil-containing protein 3 (Homo sapiens), Q9Y6A5;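 active means mean inhibition of replicates at least 50% and at least half of replicates each reaching 50%; inconclusive means half or more replicates reach 50% but mean below 50%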;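 further: 0% = complete ARNT plus TACC3 wells and 100% = ARNT alone without TACC3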
MLL AF4-AF9 inh: inhibitors of AF4 peptide binding to AF9, primary screen, biochemical, AlphaScreen, biotin-AF4 peptide, FLAG-AF9, single point | Protein AF-9 (Homo sapiens), P42568 | inhibition, % at 10 µM | 0.47% of 350,000 active;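 active means every replicate reaching a set inhibition limit, whatever the replicate mean, cut at about 25% in these data; inconclusive means mean inhibition reaches that limit but some replicates miss it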;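 further: 0% = plate neutral control median and 100% = total signal loss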
E-selectin induc: E-selectin induction in HUVECs, primary screen, imaging, HUVEC, immunofluorescence imaging, single point; normalized: neutral wells 0, TNF-alpha wells 100; P16581; activation, % at 7.58 µM; 0.37% of 260,000 active; AID 686992, 2013;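 active means mean E-selectin-positive cell signal at least 10% of the positive control, reached in at least 60% of replicates, without over 20% cell loss; inconclusive means no rule given, readout overlaps actives, possibly toxicity-flagged; inactive means the rest, including those meeting only one limit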
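assay system = HUVEC, human umbilical vein endothelial cells | input = 3,000 HUVEC seeded per well | medium = EGM-2 growth medium on 0.1% gelatin-coated wells | dosing = one compound dose added by pin transfer | signal = immunofluorescence imaging | read-out basis = % PE-positive cells | control set = TNF-alpha, DMSO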
S100A4 MyoIIA: inhibitors of S100A4-myosin IIA peptide binding, primary screen, biochemical, fluorescence polarization, TAMRA-MyoIIA peptide | Protein S100-A4 (Homo sapiens), P26447 | 0.14% of 360,000 active | inhibition, % at 10.7 µM;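 active means mean inhibition of at least 70% across replicates, with every replicate also reaching that level; inconclusive means mean inhibition reaches 70% but some replicates fall short; inactive means mean inhibition below 70%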
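Compound dosing: one dose per compound; test system: human S100A4 monomer with TAMRA-labelled myosin IIA peptide; probe or stimulus: TAMRA-labelled myosin IIA heavy-chain peptide probe, 5 nM; medium: HEPES buffer with Ca2+, pH 7.2; schedule: 5 min incubation before reading; benchmarks: neutral control DMSO, positive control TFP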
An asterisk follows results filed as active; ? = inconclusive; nt = no result given.

The chains behind the UniProt entries cited, without tags or fusion partners.
Protein AF-9 (Homo sapiens), P42568, UniProt P42568, whole entry, looked up: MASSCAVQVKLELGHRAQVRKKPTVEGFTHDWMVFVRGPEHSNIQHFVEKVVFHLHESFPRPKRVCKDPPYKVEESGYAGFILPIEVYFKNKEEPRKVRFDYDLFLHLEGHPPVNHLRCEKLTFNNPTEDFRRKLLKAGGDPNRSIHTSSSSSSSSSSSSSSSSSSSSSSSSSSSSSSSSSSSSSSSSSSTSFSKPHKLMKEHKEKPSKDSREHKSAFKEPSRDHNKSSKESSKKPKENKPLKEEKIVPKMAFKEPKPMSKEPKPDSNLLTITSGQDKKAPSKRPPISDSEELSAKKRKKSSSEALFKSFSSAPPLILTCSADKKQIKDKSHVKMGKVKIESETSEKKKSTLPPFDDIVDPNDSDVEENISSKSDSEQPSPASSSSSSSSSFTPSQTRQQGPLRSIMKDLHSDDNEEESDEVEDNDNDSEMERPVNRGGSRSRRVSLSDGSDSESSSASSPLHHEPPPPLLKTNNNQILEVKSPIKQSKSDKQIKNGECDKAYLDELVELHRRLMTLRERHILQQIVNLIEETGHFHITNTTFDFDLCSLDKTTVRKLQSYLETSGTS

| molecule | ERAP1 HTS inh | UUG fidelity | ARNT-TACC3 inh | MLL AF4-AF9 inh | E-selectin induc | S100A4 MyoIIA |
| --- | --- | --- | --- | --- | --- | --- |
| O=c1c(O[C@@H]2O[C@H](CO)C(O)C2O)c(-c2ccc(O)c(O)c2)oc2cc(O)cc(O)c12 (stereo partly drawn) | nt | -10 | 17 | nt | nt | nt |
| O=c1c(OC2OC(CO)C(O)C(O)C2O)c(-c2ccc(O)c(O)c2)oc2cc(O)cc(O)c12 (stereo not drawn) | 56* | -1 | 10 | -3 | 0 | 1 |
| CCn1nc(C(=O)Nc2nc(-c3ccccn3)cs2)c2ccccc2c1=O | 0 | -19 | 17 | 1 | 0 | 14 |
| CC(C)[C@H](NC(=O)c1ccccc1Cl)C(=O)Nc1nc(-c2ccccn2)cs1 | -2 | -31 | 58* | -1 | -3 | 0 |
| CCc1cc(C(=O)Nc2nc(-c3ccccn3)cs2)sc1C | -2 | -26 | 65* | 1 | 29* | 0 |
| CCCn1nc(C(=O)Nc2nc(-c3ccccn3)cs2)c2ccccc2c1=O | 0 | -25 | 50* | 1 | 3 | -1 |
| CC1CC1C(=O)Nc1nc(-c2ccccn2)cs1 (stereo not drawn) | nt | -36 | 62* | nt | nt | nt |
| C[C@H]1CN([C@@H](C)CO)C(=O)c2cc(NC(=O)Cc3cn(C)c4ccccc34)ccc2O[C@@H]1CN(C)Cc1ccncc1 | 2 | nt | -2 | 3 | -6 | 15 |
| COc1ccc(COC[C@]23NC(=O)N[C@H](c4ccccc4O2)[C@H]3CO)cc1 | 0 | -2 | -4 | 26* | nt | 16 |
| C[C@H](CO)N1C[C@H](C)[C@@H](CN(C)S(=O)(=O)c2cccs2)Oc2ccc(NS(=O)(=O)c3ccc(F)cc3)cc2CC1=O | -1 | 23 | 3 | 1 | 1 | 0 |
| Nc1[nH]c(=O)nc(Nc2ccccc2)c1N=O | -1 | nt | 28* | -3 | nt | 1 |
| COCC(=O)Nc1ccc2c(c1)[C@@H]1C[C@@H](CC(=O)O)O[C@@H](CO)[C@@H]1O2 | -1 | 7 | -4 | -2 | 1 | -5 |
| Cc1cc2nc3ccc(N(C)C)cc3nc2cc1N | 3 | nt | 14 | 8 | nt | 178* |
| O=C(C1CCC1)N1CC[C@@H]2[C@H](CO)Nc3ccc(C#Cc4ccc(F)cc4)cc3[C@@H]21 | 0 | nt | nt | 3 | 34* | -13 |
| CCC(=O)N1CC[C@@H]2[C@H](CO)Nc3ccc(C#Cc4ccc(F)cc4)cc3[C@@H]21 | 3 | -6 | 1 | 0 | 59* | -20 |
| CCC(=O)N1CC[C@H]2[C@H](CO)Nc3ccc(C#Cc4ccc(OC)cc4)cc3[C@H]21 | 2 | nt | nt | 26* | 1 | -10 |
| CCC(=O)N1CC[C@H]2[C@H](CO)Nc3ccc(C#Cc4ccccc4F)cc3[C@H]21 | 3 | nt | nt | 3 | 0 | 6 |
| Cc1[nH]c2ccccc2c1C(=O)CN1C(=O)C(=O)N(Cc2ccco2)C1=O | 33* | nt | 1 | -1 | 4 | 7 |
| Cc1[nH]c2ccccc2c1C(=O)CN1C(=O)C(=O)N(CCC2=CCCCC2)C1=O | 0 | -16 | nt | 0 | ? | -2 |
| Cc1cc(C(=O)CN2C(=O)C(=O)N(Cc3ccco3)C2=O)c(C)n1CCc1ccccc1 | -2 | -16 | -3 | 1 | nt | -15 |
| Cc1cc(C(=O)CN2C(=O)C(=O)N(Cc3ccco3)C2=O)c(C)n1CCc1ccc(F)cc1 | 4 | -1 | 3 | 1 | 90* | -1 |
| COc1ccc(CN(C)C[C@H]2OCc3cn(nn3)CCCC(=O)N([C@@H](C)CO)C[C@H]2C)cc1 | 0 | -8 | -38 | 0 | 0 | 0 |
| COC(=O)C[C@H]1C[C@@H]2c3cc(NC(=O)Nc4ccc(OC)cc4)ccc3O[C@@H]2[C@H](CO)O1 | nt | -14 | 3 | nt | 0 | nt |
| COc1ccccc1C#Cc1ccc2c(c1)O[C@@H](CN(C)C)[C@H](C)CN([C@H](C)CO)S2(=O)=O | 1 | 1 | 5 | 10 | 0 | 5 |
| CCOC(=O)Cc1csc(NC(=O)/C=C/c2ccc(Br)o2)n1 | 2 | -3 | 4 | 33* | 0 | -1 |
| CCCN(C)C[C@H]1OCc2cn(nn2)CCCC(=O)N([C@H](C)CO)C[C@H]1C | 0 | 4 | 2 | -18 | 0 | -1 |
| COc1ccccc1C(C)Nc1ccc(S(=O)(=O)N2CCN(C)CC2)cc1[N+](=O)[O-] (stereo not drawn) | -2 | 11 | 65* | 28* | -1 | -4 |
| CC(Nc1ccc(S(=O)(=O)N2CCN(C)CC2)cc1[N+](=O)[O-])c1ccccc1 (stereo not drawn) | -1 | -27 | 13 | 18 | 5 | -5 |
| CN1c2ccc(-c3ccccc3F)cc2[C@H]2[C@H](CCN2C(=O)Nc2ccc(F)cc2)[C@H]1CO | 0 | -9 | 5 | 4 | 0 | 3 |
| NC(=S)NNC(=O)C12CC3CC(CC(C3)C1)C2 | -3 | -33 | -5 | -2 | 55* | -1 |
| Cc1cc(=O)oc2c1c(C)nn2-c1nn[nH]n1 | nt | -14 | 64* | nt | nt | nt |
| CCCc1cc(=O)oc2cc(C)cc(OCc3nn[nH]n3)c12 | nt | -25 | 0 | nt | nt | nt |
| C[C@@H]1CN([C@H](C)CO)C(=O)c2cc(NS(C)(=O)=O)ccc2O[C@H]1CN(C)C(=O)Nc1ccccc1 | 0 | -12 | nt | 3 | 69* | 0 |
| C[C@@H]1CN([C@@H](C)CO)C(=O)c2cc(NS(C)(=O)=O)ccc2O[C@H]1CN(C)C(=O)Nc1ccc2c(c1)OCO2 | -1 | -4 | 0 | -5 | -3 | 2 |
| C[C@H](CO)N1C[C@H](C)[C@H](CN(C)C(=O)Nc2ccccc2)Oc2ccc(NS(C)(=O)=O)cc2C1=O | 0 | -19 | nt | -10 | 74* | -3 |
| C[C@@H]1CN([C@H](C)CO)C(=O)c2cc(NS(C)(=O)=O)ccc2O[C@H]1CN(C)C(=O)Nc1ccc2c(c1)OCO2 | 0 | -7 | -7 | -6 | 197* | -2 |
| C[C@H]1CN([C@@H](C)CO)C(=O)c2cc(NS(C)(=O)=O)ccc2O[C@H]1CN(C)C(=O)Nc1ccccc1 | 1 | -31 | nt | -10 | -15 | -4 |
| Cc1cc(C)n(-c2nnc(C)n2N)n1 | nt | -14 | -14 | nt | nt | nt |
| Cc1cc(C)n(-c2nnc(C)c(=O)[nH]2)n1 | 7 | 6 | 60* | nt | 1 | 2 |
| O=C(CN1CC(=O)Oc2ccccc21)OCC(=O)c1cccc(Br)c1 | nt | -18 | 73* | nt | nt | nt |
| CCNC(=O)C[C@@H]1C=C[C@H](NS(=O)(=O)c2ccc(C)cc2)[C@@H](CO)O1 | 0 | -11 | -10 | -1 | 0 | 0 |
